In ChEMBL document CHEMBL4354843, “Structure-Based Design of a Potent and Selective Covalent Inhibitor for SRC Kinase That Targets a P-Loop Cysteine” (J Med Chem, 2020):

Test system: BaF3
Assay: cells
Conditions: Mus musculus, BaF3, 72 h

C=CC(=O)Nc1ccccc1Nc1nc(Nc2ccc(N3CCN(C)CC3)cc2)ncc1C(=O)Nc1c(C)cccc1Cl
IC50: > 2930 nM
